Test results from ChEMBL document CHEMBL5223156, “Synthesis and biological evaluation of novel N-benzyltriazolyl-hydroxamate derivatives as selective histone deacetylase 6 inhibitors” (Bioorg Med Chem, 2023).

Target: T1, Histone deacetylase 8 (Homo sapiens, UniProt Q9BY41)
T1 sequence (Q9BY41 whole entry): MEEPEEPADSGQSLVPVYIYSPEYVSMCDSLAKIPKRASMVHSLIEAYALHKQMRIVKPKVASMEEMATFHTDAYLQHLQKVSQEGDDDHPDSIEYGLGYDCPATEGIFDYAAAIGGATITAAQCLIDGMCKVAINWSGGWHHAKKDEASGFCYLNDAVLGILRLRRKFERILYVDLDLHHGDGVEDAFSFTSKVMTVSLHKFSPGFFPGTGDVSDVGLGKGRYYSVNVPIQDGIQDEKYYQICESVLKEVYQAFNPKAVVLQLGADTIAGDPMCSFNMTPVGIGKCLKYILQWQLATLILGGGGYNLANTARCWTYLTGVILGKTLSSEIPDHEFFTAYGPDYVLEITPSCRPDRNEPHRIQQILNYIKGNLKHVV
Assay: Inhibition of human recombinant HDAC8 using fluorogenic substrate measured after 30 mins

IC50: 2.88 µM
SMILES: O=C(CCCCCCC(=O)Nc1ccccc1)NO [VORINOSTAT]
